The record followed here is patent US4900748A (priority 1988, dated 1990).

By UniProt entry, the sequences of proteins in these tests, tags left out. Residues count along the entry.
UniProt P22303, 32-614: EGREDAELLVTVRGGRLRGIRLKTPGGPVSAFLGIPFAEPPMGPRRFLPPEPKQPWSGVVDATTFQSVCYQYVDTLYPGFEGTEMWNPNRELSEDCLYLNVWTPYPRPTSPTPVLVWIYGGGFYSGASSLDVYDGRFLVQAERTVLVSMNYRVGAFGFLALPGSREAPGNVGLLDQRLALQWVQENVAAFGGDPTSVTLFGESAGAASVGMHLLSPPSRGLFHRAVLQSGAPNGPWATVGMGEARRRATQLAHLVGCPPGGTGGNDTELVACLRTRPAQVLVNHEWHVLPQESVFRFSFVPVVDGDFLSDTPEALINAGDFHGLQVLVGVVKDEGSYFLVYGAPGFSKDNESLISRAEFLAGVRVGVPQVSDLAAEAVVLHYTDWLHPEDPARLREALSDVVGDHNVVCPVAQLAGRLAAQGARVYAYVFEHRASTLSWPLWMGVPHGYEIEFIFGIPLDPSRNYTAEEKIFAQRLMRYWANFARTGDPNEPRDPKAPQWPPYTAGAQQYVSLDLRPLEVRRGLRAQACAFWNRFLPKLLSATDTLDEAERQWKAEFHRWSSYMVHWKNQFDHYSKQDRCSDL
UniProt O42275, 24-633: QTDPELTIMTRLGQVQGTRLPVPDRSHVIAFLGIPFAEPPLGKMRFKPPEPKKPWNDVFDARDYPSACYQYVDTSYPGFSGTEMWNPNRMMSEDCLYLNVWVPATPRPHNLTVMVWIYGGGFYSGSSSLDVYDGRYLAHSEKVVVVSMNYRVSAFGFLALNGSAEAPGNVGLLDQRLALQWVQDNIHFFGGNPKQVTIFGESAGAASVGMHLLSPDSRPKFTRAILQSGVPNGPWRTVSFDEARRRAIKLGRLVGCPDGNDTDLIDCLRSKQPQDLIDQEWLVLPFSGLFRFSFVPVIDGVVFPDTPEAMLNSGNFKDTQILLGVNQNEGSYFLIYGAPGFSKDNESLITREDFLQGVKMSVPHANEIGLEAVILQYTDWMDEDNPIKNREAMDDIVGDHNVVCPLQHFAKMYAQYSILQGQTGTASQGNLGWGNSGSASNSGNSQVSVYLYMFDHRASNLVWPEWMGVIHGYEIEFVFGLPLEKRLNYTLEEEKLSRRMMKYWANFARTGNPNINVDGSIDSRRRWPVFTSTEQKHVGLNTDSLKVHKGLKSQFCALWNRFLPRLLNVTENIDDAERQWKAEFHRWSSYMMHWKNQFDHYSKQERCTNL
UniProt P06276, 29-602: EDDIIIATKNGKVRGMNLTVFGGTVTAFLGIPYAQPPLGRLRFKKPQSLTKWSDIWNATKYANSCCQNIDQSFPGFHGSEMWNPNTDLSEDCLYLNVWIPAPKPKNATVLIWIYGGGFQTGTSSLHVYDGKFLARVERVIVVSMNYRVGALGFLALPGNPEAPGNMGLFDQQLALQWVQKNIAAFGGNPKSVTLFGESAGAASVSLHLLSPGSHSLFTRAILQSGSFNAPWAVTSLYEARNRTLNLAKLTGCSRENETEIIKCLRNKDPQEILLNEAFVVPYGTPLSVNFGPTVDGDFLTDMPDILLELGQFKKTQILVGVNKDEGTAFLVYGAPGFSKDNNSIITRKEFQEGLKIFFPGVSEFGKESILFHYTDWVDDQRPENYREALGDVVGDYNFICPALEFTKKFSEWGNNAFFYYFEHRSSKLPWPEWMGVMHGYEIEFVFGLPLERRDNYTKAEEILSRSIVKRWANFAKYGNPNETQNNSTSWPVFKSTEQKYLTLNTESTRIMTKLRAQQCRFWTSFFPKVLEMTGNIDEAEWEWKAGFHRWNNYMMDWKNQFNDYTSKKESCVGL

Read-outs that look alike come from different tables or passages of the source.

Assay [1] concerns the target Acetylcholinesterase (RBC) (Homo sapiens, UniProt P22303). It is filed as biochemical.
Assay [2] addresses Acetylcholinesterase (Eel) (Electrophorus electricus, UniProt O42275). In words: biochemical. It is filed as biochemical.
In assay [3] the target is Acetylcholinesterase (Caudate) (Homo sapiens, UniProt P22303). Description: biochemical.
Assay [4] concerns the target Acetylcholinesterase (Cortex) (Homo sapiens, UniProt P22303). In words: biochemical. It counts as biochemical.
Assay [5] has as its target Butyrylcholinesterase (Cortex) (Homo sapiens, UniProt P06276). Description: biochemical.
In assay [6] the target is Butyrylcholinesterase (Plasma) (Homo sapiens, UniProt P06276). In words: biochemical.
The next assay has as its target acetylcholinesterase. It counts as biochemical. As to conditions: read-out: IC50, antiacetylcholinesterase (approximate).
The mark [7] stands for this setting: read-out: IC50 Acetylcholinesterase Eel.
The mark [8] stands for this setting: read-out: IC50 Acetylcholinesterase Cortex.

With `CCCCCCCCNC(=O)Oc1ccc2c(c1)[C@]1(C)CCN(C)[C@@H]1N2C` [YU-71, eseroline octylcarbamate], the IC50 in assay [1] worked out at 16 ± 4 nM; in assay [2], 110 nM; in assay [2] (setting [7]), 110 ± 110 nM; in assay [3], 12 ± 10 nM; in assay [4] (setting [8]), 15 ± 1 nM.
Turning to `C=CC[N+](C)(C)c1ccc(CCC(=O)CCc2ccc([N+](C)(C)CC=C)cc2)cc1` [BW284c51, reference compound], the values for the IC50 in assay [5], in assay [3] and in assay [4] were 300000 nM, 22 nM and 28 nM, respectively.
Take `CC(C)NP(=O)(NC(C)C)OP(=O)(NC(C)C)NC(C)C` [iso-OMPA, reference compound]: in assay [5], the IC50 was found to be 6700 nM.
Turning to `CNC(=O)Oc1ccc2c(c1)[C@]1(C)CCN[C@@H]1N2C` [YU-96, N--norphysostigmine], the half-inhibitory concentration (IC50) is 1.82 ± 0.74 nM in assay [6], 34.9 ± 16.9 nM in assay [5] (read-out: IC50 Butyrylcholinesterase Cortex) and 56.3 ± 1.8 nM in assay [2].
Consider `CNC(=O)Oc1ccc2c(c1)[C@]1(C)CCN(Cc3ccccc3)[C@@H]1N2C` [YU-94, N--benzylphysostigmine], for which the IC50 in assay [6] is 10.5 ± 3.8 nM; in assay [5], 54.2 ± 19 nM.
Consider `COc1ccc(NC(=O)Oc2ccc3c(c2)[C@]2(C)CCN(C)[C@@H]2N3C)cc1` [YU-114, methoxyphenyl carbamoyleseroline], for which the IC50 on acetylcholinesterase is around 300 nM; in assay [1] it was 347 ± 10 nM; in assay [3] it was 276 ± 9 nM; in assay [4] (setting [8]), 229 ± 40 nM.
`CNC(=O)Oc1ccc2c(c1)[C@]1(C)CCN(C)[C@@H]1N2C` [(-) physo, (-)-physostigmine, reference compound]: in assay [2] (setting [7]), the IC50 stood at 61 ± 18 nM.
Turning to `C=CCN1CC[C@@]2(C)c3cc(OC(=O)NC)ccc3N(C)[C@@H]12` [YU-110, N--allyl physostigmine], the IC50 in assay [1] was 44.7 ± 26 nM; in assay [2] (setting [7]), 69.2 ± 25.3 nM; in assay [3], 40.8 ± 18.7 nM; in assay [4] (setting [8]), 31.7 ± 10.2 nM.

The term IC50 denotes the concentration that gives 50% inhibition.
